Sequences of proteins named here, by UniProt entry; tags and fusion partners are left off.
UniProt Q96SW2, whole entry: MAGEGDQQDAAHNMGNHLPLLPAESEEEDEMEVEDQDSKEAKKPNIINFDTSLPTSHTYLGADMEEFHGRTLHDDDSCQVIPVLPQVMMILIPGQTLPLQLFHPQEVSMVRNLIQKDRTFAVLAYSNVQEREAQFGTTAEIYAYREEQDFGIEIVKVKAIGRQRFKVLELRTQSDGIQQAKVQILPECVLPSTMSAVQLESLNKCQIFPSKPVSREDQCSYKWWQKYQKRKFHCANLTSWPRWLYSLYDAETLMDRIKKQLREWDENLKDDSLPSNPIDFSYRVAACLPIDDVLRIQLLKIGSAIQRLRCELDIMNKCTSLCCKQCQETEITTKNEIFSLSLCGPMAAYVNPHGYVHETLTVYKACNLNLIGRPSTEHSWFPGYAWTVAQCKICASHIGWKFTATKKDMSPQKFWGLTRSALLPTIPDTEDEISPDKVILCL
UniProt P48729, whole entry: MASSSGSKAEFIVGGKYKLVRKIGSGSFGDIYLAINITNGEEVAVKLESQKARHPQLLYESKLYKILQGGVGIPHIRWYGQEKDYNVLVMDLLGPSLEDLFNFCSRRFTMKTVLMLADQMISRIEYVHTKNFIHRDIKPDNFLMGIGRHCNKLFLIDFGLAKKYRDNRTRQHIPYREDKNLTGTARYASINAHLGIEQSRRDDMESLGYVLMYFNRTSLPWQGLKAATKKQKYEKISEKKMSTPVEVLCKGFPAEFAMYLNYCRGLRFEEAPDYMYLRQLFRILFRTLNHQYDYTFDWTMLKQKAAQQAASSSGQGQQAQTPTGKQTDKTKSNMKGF
UniProt P15170, whole entry: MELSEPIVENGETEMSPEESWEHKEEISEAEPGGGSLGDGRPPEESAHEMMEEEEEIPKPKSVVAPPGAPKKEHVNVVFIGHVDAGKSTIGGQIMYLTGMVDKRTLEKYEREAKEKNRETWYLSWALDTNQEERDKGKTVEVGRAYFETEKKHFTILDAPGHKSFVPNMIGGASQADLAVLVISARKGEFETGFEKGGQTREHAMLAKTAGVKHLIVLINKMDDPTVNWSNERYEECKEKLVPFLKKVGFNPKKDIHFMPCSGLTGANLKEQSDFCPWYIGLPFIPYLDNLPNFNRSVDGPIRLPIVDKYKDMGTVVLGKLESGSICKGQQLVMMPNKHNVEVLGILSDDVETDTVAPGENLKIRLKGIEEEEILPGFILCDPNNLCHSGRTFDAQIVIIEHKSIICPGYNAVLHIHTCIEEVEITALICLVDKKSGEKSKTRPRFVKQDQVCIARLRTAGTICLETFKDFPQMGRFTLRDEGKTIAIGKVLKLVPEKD
UniProt Q13422, whole entry: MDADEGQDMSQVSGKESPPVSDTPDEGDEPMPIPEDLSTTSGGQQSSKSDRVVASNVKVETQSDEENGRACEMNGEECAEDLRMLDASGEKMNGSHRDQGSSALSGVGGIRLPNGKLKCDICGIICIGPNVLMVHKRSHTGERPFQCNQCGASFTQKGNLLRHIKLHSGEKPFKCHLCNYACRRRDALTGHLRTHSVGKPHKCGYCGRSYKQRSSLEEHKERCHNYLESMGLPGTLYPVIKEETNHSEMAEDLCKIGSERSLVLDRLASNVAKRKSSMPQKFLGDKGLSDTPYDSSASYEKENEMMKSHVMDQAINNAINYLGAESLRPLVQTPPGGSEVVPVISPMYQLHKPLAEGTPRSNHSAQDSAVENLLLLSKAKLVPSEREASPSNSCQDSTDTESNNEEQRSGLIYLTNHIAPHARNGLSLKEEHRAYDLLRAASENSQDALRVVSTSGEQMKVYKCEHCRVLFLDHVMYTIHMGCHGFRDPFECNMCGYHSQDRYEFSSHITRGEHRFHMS
UniProt Q9UKS7, whole entry: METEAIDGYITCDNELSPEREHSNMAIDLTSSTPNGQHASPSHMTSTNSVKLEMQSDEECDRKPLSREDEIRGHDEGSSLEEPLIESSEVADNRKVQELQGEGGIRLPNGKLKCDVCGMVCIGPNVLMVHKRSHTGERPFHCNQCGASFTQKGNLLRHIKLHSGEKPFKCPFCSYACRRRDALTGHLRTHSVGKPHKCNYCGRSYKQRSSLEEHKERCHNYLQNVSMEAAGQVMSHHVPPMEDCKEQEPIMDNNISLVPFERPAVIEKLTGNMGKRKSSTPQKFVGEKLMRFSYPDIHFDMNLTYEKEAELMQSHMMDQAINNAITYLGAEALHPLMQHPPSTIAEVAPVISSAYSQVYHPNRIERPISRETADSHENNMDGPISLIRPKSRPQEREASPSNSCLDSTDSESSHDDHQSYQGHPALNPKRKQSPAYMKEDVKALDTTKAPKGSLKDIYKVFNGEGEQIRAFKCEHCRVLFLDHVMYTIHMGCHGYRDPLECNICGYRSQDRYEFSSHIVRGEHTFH
UniProt Q9UKT9, whole entry: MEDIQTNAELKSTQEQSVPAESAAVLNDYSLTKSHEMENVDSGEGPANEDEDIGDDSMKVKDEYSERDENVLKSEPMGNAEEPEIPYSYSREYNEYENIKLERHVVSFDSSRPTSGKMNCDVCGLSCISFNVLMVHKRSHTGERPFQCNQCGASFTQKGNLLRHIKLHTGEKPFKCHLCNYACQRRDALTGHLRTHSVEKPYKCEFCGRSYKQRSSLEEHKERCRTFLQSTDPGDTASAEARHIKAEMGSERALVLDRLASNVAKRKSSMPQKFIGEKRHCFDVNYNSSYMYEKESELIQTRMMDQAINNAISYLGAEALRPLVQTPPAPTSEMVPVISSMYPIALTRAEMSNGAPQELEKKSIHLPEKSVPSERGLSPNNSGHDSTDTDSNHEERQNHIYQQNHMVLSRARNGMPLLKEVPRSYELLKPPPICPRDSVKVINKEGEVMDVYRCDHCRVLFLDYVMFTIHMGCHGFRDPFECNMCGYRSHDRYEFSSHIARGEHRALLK
UniProt P30291, whole entry: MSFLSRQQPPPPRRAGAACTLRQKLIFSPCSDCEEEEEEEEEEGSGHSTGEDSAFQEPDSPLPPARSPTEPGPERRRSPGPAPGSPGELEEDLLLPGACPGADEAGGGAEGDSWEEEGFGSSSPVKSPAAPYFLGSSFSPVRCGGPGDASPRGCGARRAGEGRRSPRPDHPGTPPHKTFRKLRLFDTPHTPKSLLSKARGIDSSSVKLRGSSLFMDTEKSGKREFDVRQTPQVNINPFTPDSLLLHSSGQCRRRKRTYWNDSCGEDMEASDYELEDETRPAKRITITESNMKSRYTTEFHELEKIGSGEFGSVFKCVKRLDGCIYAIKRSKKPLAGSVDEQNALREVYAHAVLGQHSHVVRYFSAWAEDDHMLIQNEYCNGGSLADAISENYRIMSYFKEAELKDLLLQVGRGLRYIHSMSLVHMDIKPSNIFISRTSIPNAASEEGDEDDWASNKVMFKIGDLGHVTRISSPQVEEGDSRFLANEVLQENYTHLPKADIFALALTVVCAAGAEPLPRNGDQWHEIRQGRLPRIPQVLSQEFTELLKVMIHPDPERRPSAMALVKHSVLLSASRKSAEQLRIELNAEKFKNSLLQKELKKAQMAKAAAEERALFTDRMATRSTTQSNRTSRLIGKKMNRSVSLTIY
UniProt Q16531, whole entry partner: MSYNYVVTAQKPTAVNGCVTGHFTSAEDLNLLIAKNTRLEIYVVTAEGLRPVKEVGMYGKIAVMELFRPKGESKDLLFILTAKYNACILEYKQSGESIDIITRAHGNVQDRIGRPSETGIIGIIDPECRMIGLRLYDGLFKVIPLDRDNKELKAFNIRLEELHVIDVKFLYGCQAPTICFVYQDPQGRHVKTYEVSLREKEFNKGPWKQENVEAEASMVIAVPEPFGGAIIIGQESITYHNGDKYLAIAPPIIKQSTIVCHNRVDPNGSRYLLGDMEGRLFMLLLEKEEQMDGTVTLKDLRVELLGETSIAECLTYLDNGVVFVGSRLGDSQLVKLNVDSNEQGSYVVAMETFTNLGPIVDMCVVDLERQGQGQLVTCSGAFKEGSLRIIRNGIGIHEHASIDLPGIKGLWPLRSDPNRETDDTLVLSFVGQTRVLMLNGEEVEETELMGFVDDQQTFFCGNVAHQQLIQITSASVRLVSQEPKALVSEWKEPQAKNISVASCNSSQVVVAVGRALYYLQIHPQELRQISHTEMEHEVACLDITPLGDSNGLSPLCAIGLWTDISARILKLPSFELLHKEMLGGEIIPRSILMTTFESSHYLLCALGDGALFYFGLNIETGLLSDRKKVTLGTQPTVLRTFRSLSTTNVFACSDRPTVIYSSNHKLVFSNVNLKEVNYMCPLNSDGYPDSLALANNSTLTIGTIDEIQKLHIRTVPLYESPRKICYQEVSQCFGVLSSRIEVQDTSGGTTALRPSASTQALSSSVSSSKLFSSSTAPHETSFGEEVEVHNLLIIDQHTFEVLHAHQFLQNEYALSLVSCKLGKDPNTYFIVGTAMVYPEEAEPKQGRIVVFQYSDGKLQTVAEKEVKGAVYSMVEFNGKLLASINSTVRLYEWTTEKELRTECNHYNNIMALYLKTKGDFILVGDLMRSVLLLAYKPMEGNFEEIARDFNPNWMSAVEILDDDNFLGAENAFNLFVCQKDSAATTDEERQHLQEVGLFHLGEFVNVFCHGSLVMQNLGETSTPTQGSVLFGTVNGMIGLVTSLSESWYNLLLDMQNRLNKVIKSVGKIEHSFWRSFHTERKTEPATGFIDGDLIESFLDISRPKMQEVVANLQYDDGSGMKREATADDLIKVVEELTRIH

According to EP4834897A1, “COMPOUNDS WITH TWO AZAHETEROCYCLES SUBSTITUTED ISOINDOLINONE SKELETON AND USES THEREOF” (dated 2026):

Each compound was assayed on Human acute T lymphocytic leukemia cell (Molt4) (assay: Tumor cell proliferation inhibition (cell viability assay)). Conditions: Molt4 cells; 10 nM; 96 hours.

Structure (SMILES) | Inhibition Rate at 10 nM (%)
O=C1CCC(N2Cc3cc(C(=O)N4CCC(N5CCN(c6noc7cc(F)ccc67)CC5)C(F)(F)C4)c(F)cc3C2=O)C(=O)N1 (stereo not drawn) | 1c6 (30% ≤ 1c6 < 40%)

Same assay, conditions: Molt4 cells; 500 nM; 96 hours

Structure (SMILES) | Inhibition Rate at 500 nM (%)
O=C1CCC(N2Cc3cc(C(=O)N4CCC(N5CCN(c6noc7cc(F)ccc67)CC5)C(F)(F)C4)c(F)cc3C2=O)C(=O)N1 (stereo not drawn) | 1c11 (80% ≤ 1c11 ≤ 100%)

These compounds were tested on Human colon cancer cell (SW620) in the same assay as above. Conditions: SW620 cells; 10 nM; 96 hours.

Structure (SMILES) | Inhibition Rate at 10 nM (%)
O=C1CCC(N2Cc3cc(C(=O)N4CCC(N5CCN(c6noc7cc(F)ccc67)CC5)C(F)(F)C4)c(F)cc3C2=O)C(=O)N1 (stereo not drawn) | 1d2 (5% ≤ 1d2 < 10%)

Same assay, conditions: SW620 cells; 500 nM; 96 hours

Structure (SMILES) | Inhibition Rate at 500 nM (%)
O=C1CCC(N2Cc3cc(C(=O)N4CCC(N5CCN(c6noc7cc(F)ccc67)CC5)C(F)(F)C4)c(F)cc3C2=O)C(=O)N1 (stereo not drawn) | 1d8 (60% ≤ 1d8 < 70%)

These compounds were tested on Human mantle cell lymphoma cell line (JEKO-1) in the same assay as above. Conditions: JEKO-1 cells; 10 nM; 96 hours.

Structure (SMILES) | Inhibition Rate at 10 nM (%)
O=C1CCC(N2Cc3cc(C(=O)N4CCC(N5CCN(c6noc7cc(F)ccc67)CC5)C(F)(F)C4)c(F)cc3C2=O)C(=O)N1 (stereo not drawn) | 1g3 (10% ≤ 1g3 < 20%)

Same assay, conditions: JEKO-1 cells; 500 nM; 96 hours

Structure (SMILES) | Inhibition Rate at 500 nM (%)
O=C1CCC(N2Cc3cc(C(=O)N4CCC(N5CCN(c6noc7cc(F)ccc67)CC5)C(F)(F)C4)c(F)cc3C2=O)C(=O)N1 (stereo not drawn) | 1g6 (40% ≤ 1g6 < 50%)

These compounds were tested on Human multiple myeloma cell (MM.1S) in the same assay as above. Conditions: MM.1S cells; 10 nM; 96 hours.

Structure (SMILES) | Inhibition Rate at 10 nM (%)
O=C1CCC(N2Cc3cc(C(=O)N4CCC(N5CCN(c6noc7cc(F)ccc67)CC5)C(F)(F)C4)c(F)cc3C2=O)C(=O)N1 (stereo not drawn) | 1b4 (20% ≤ 1b4 < 32%)

Same assay, conditions: MM.1S cells; 500 nM; 96 hours

Structure (SMILES) | Inhibition Rate at 500 nM (%)
O=C1CCC(N2Cc3cc(C(=O)N4CCC(N5CCN(c6noc7cc(F)ccc67)CC5)C(F)(F)C4)c(F)cc3C2=O)C(=O)N1 (stereo not drawn) | 1b10 (80% ≤ 1b10 ≤ 100%)

What follows are compounds tested on Human myeloid monocytic leukemia cell (MV-4-11) in the same assay as above. Conditions: MV-4-11 cells; 10 nM; 96 hours.

Structure (SMILES) | Inhibition Rate at 10 nM (%)
O=C1CCC(N2Cc3cc(C(=O)N4CCC(N5CCN(c6noc7cc(F)ccc67)CC5)C(F)(F)C4)c(F)cc3C2=O)C(=O)N1 (stereo not drawn) | 1a8 (60% ≤ 1a8 < 70%)

Same assay, conditions: MV-4-11 cells; 500 nM; 96 hours

Structure (SMILES) | Inhibition Rate at 500 nM (%)
O=C1CCC(N2Cc3cc(C(=O)N4CCC(N5CCN(c6noc7cc(F)ccc67)CC5)C(F)(F)C4)c(F)cc3C2=O)C(=O)N1 (stereo not drawn) | 1a10 (80% ≤ 1a10 < 100%)

Each compound was assayed against CRBN (Homo sapiens, UniProt Q96SW2) (assay: CRBN binding affinity by HTRF (CEREBLON BINDING kit)). Conditions: CRBN binding, HTRF, compound at 0.5 µM.

Structure (SMILES) | Inhibition Rate at 0.5 µM (%)
O=C1CCC(N2Cc3cc(C(=O)N4CCC(N5CCN(c6noc7cc(F)ccc67)CC5)C(F)(F)C4)c(F)cc3C2=O)C(=O)N1 (stereo not drawn) | a3 (30% < a3 ≤ 40%)

Same assay, conditions: CRBN binding, HTRF, compound at 2 µM

Structure (SMILES) | Inhibition Rate at 2 µM (%)
O=C1CCC(N2Cc3cc(C(=O)N4CCC(N5CCN(c6noc7cc(F)ccc67)CC5)C(F)(F)C4)c(F)cc3C2=O)C(=O)N1 (stereo not drawn) | a7 (70% < a7 ≤80%)

The compounds below were run against CK1α (Homo sapiens, UniProt P48729+Q96SW2) (assay: Western blot assay of substrate protein degradation in hPBMCs). Conditions: 24 hours treatment, compounds at 50 nM and 500 nM (concentration behind the class not stated).

Structure (SMILES) | substrate protein remaining % (CK1a)
O=C1CCC(N2Cc3cc(C(=O)N4CCC(N5CCN(c6noc7cc(F)ccc67)CC5)C(F)(F)C4)c(F)cc3C2=O)C(=O)N1 (stereo not drawn) | A (0% ≤ substrate protein remaining % ≤ 80%)

These compounds were tested against GSPT1 (Homo sapiens, UniProt P15170+Q96SW2) in the same assay as above. Conditions: 24 hours treatment, compounds at 50 nM and 500 nM (concentration behind the class not stated).

Structure (SMILES) | substrate protein remaining % (GSPT1)
O=C1CCC(N2Cc3cc(C(=O)N4CCC(N5CCN(c6noc7cc(F)ccc67)CC5)C(F)(F)C4)c(F)cc3C2=O)C(=O)N1 (stereo not drawn) | A (0% ≤ substrate protein remaining % ≤ 80%)

The compounds below were run against IKZF1 (Homo sapiens, UniProt Q13422+Q96SW2) in the same assay as above. Conditions: 24 hours treatment, compounds at 50 nM and 500 nM (concentration behind the class not stated).

Structure (SMILES) | substrate protein remaining % (IKZF 1)
O=C1CCC(N2Cc3cc(C(=O)N4CCC(N5CCN(c6noc7cc(F)ccc67)CC5)C(F)(F)C4)c(F)cc3C2=O)C(=O)N1 (stereo not drawn) | B (80%< substrate protein remaining %≤ 100%)

Each compound was assayed against IKZF2 (Homo sapiens, UniProt Q96SW2+Q9UKS7) in the same assay as above. Conditions: 24 hours treatment, compounds at 50 nM and 500 nM (concentration behind the class not stated).

Structure (SMILES) | substrate protein remaining % (IKZF2)
O=C1CCC(N2Cc3cc(C(=O)N4CCC(N5CCN(c6noc7cc(F)ccc67)CC5)C(F)(F)C4)c(F)cc3C2=O)C(=O)N1 (stereo not drawn) | B (80%< substrate protein remaining %≤ 100%)

These compounds were tested against IKZF3 (Homo sapiens, UniProt Q96SW2+Q9UKT9) in the same assay as above. Conditions: 24 hours treatment, compounds at 50 nM and 500 nM (concentration behind the class not stated).

Structure (SMILES) | substrate protein remaining % (IKZF3)
O=C1CCC(N2Cc3cc(C(=O)N4CCC(N5CCN(c6noc7cc(F)ccc67)CC5)C(F)(F)C4)c(F)cc3C2=O)C(=O)N1 (stereo not drawn) | B (80%< substrate protein remaining %≤ 100%)

What follows are compounds tested against WEE1 (Homo sapiens, UniProt P30291+Q96SW2) in the same assay as above. Conditions: 24 hours treatment, compounds at 50 nM and 500 nM (concentration behind the class not stated).

Structure (SMILES) | substrate protein remaining % (WEE1)
O=C1CCC(N2Cc3cc(C(=O)N4CCC(N5CCN(c6noc7cc(F)ccc67)CC5)C(F)(F)C4)c(F)cc3C2=O)C(=O)N1 (stereo not drawn) | A (0% ≤ substrate protein remaining % ≤ 80%)
